Protein sequences, listed by entry. Tags and fused reporters are not part of them. Lines headed by an entry give the natural chain unless they say otherwise; changes in a name come on top.
UniProt P97266, whole entry: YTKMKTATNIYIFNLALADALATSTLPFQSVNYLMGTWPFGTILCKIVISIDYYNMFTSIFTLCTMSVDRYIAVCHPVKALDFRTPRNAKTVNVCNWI
UniProt P41144: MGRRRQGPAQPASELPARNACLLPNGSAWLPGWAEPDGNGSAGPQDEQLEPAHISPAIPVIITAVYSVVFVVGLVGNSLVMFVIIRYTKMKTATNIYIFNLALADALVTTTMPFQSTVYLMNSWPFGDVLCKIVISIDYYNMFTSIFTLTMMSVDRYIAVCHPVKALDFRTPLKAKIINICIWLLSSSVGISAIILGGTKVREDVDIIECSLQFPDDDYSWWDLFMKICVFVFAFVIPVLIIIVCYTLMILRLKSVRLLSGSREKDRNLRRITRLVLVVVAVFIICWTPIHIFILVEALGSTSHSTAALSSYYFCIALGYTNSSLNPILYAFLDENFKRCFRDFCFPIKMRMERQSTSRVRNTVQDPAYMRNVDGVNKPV

In ChEMBL document CHEMBL4406853 (Eur J Med Chem, 2019):

How the values were obtained:
[1] = target: Mu-type opioid receptor (Cavia porcellus) (UniProt P97266); test: Agonist activity at mu opioid receptor in guinea pig brain membranes by [35S]-GTPgammaS binding assay relative to control; type: functional, cell membranes
[2] = target: Kappa-type opioid receptor (Cavia porcellus) (UniProt P41144); test: Agonist activity at kappa opioid receptor in guinea pig brain membranes by [35S]-GTPgammaS binding assay relative to control; type: functional, cell membranes
Cavia porcellus = species: Cavia porcellus; test: Agonist activity at delta opioid receptor in guinea pig brain membranes by [35S]-GTPgammaS binding assay relative to control; type: cell membranes

Measured: Emax

CC[C@@H]1CN2CC[C@@]3(O)C(=Nc4cccc(OC)c43)[C@@H]2C[C@@H]1/C(=C\OC)C(=O)OC
77%: all assays above
